According to patent US10189796B2, “[4-(1,3,3-trimethyl-2-oxo-3,4-dihydro-1H-quinoxalin-7-yl)phenoxy]ethyloxy compound or salt thereof” (SANTEN PHARMACEUTICAL CO., LTD., priority 2015, dated 2019):

test system: IL-6 production in human corneal epithelium cell line (HCE-T); test: IL-6 production inhibitory action evaluation test (LPS stimulation, HTRF); type: cell-based; settings: IL-6 production inhibition, 4 hours
Protocol: To evaluate the action of the present compounds as a GR agonist, IL-6 production inhibitory action in human corneal epithelial cell line after LPS stimulation was examined The IL-6 production was measured by using the HTRF method (Cat No. 62IL6PEB manufactured by Cisbio Bioassays, Inc.) according to the attached protocol. The specific method is described below.
LPS solution: After dissolving LPS in PBS(−), the resulting solution was diluted with a culture solution, whereby an LPS solution with a 1 μg/mL concentration was prepared.
After dissolving the test compound in dimethylsulfoxide, the solution was diluted with a 10% FBS-DMEM/Ham's F12 medium, whereby a 100 μM of the test compound solution was prepared. […] In addition, DEX was similarly dissolved, whereby a 100 μM concentration of the DEX solution was prepared, and an IL-6 production inhibitory ratio of DEX was measured, and used for calculation of Efficacy (% DEX).
Used cells: human corneal epithelium cell line (HCE-T) (RIKEN, Institute of Physical and Chemical Research) […]
FBS-DMEM/Ham's F12 medium was added. • 3) Test compound solution was added with each 10 μL/well. • 4) LPS solution was added with each 10 μL/well. • 5) The sample to which 1% dimethylsulfoxide-containing 10% FBS-DMEM/Ham's F12 medium was added with each 10 μL/well in place of each test compound solution, and 10% FBS-DMEM/Ham's F12 medium was added in place of the LPS solution was made a negative control. • 6) The sample in which 1% dimethylsulfoxide-containing 10% FBS-DMEM/Ham's F12 medium was added with each 10 μL/well in place of each test compound solution was made a positive control. • 7) After completion of 4 hours cultivation, the supernatant was recovered and the amount of IL-6 released in the supernatant was measured by using an HTRF human IL-6 Kit. • 8) The IL-6 production inhibitory ratio was calculated according to the following calculation formula. […]
The IL-6 production inhibitory ratio (%) was calculated by the following formula. […]
In addition, IC50 was calculated according to a conventional method. […]

IC50	Structure (SMILES)
123 nM	COc1ccc(CO)cc1-c1ccc2c(c1COc1cc(F)ccc1C)N(C)C(=O)C(C)(C)N2 [Control compound B, 8-(5-fluoro-2-methylphenoxymethyl)-7-(5-hydroxymethyl-2-methoxyphenyl)-1,3,3-trimethyl-3,4-dihydro-1H-quinoxalin-2-one, reference compound]
15 nM	COc1cc(OC[C@@H](O)CCO)ccc1-c1ccc2c(c1COc1cc(F)ccc1C)N(C)C(=O)C(C)(C)N2 [Compound 2-1, (S)-7-[4-(2,4-dihydroxybutyl)oxy-2-methoxyphenyl]-8-(5-fluoro-2-methyl-phenoxymethyl)-1,3,3-trimethyl-3,4-dihydro-1H-quinoxalin-2-one]
33 nM	COc1cc(OC[C@H](C)O)ccc1-c1ccc2c(c1COc1cc(F)ccc1C)N(C)C(=O)C(C)(C)N2 [Compound 1-1, (S)-8-(5-fluoro-2-methylphenoxymethyl)-7-[4-(2-hydroxypropyl)oxy-2-methoxy-phenyl]-1,3,3-trimethyl-3,4-dihydro-1H-quinoxalin-2-one]
